Test results from PubChem BioAssay (EPA / NIEHS).
This is a selection; strong and weak results do not stand in their true shares. Calls of active or inactive are those of the source. The calls were made as follows: active = hit-call score of the fitted dose curve at least 0.9, where 1 is the maximum; inactive = score below 0.9.

Amino acid sequences for entries named in this document (tags omitted). A change or cut given only in a name is not applied to a line headed by its entry.
UniProt P10415, whole entry, looked up: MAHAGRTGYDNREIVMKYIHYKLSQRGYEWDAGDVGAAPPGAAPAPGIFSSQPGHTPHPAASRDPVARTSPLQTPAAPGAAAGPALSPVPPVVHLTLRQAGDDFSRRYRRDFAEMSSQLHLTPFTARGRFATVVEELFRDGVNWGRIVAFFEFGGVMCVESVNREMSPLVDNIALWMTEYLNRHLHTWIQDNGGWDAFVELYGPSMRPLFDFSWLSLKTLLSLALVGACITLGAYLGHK
UniProt P42574: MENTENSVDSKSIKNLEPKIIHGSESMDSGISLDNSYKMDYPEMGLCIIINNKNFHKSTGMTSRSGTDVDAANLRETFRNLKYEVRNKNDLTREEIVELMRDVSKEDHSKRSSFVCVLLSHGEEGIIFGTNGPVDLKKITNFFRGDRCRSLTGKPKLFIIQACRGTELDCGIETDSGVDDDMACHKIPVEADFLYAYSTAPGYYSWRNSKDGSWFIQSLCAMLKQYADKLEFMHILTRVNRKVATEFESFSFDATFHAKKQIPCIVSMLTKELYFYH
UniProt P33261, whole entry, looked up: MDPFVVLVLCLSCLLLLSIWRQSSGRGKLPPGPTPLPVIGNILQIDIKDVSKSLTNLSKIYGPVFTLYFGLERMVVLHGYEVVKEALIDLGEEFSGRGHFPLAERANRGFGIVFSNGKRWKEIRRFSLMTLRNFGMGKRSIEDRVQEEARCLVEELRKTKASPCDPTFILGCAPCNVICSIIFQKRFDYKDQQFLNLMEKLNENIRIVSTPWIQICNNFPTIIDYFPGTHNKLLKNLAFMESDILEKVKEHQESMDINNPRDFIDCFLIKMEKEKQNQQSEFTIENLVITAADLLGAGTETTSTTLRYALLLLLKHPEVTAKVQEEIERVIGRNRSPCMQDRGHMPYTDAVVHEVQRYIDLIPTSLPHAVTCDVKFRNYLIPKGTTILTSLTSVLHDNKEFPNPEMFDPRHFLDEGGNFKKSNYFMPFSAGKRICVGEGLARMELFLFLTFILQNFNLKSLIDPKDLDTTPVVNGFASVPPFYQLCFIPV

read-out: Bcl-2 (BAX) gene, BAX (gene 581); assay: LTEA_HepaRG_BAX: Life Technologies and Expression Analysis (LTEA) Assay for Bcl-2 (BAX) gene using HepaRG (AID 2283470); details: actives raise or lower the signal; mRNA level, 48 h
How it was run: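 Differentiated human HepaRG cells, plated 48 h then switched to serum-free induction medium, were exposed 48 h to 8 half-log concentrations up to 100 uM in 0.5% DMSO; BAX mRNA measured by qRT-PCR, normalized to ACTB, GAPDH, POLR2A.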

Compound | outcome | AC50
CN(C(=O)Cc1cccc2occc12)[C@H]1CC[C@@]2(CCCO2)C[C@@H]1N1CCCC1 | inactive | –
CC(C)OP(=S)(OC(C)C)SCCNS(=O)(=O)c1ccccc1 | inactive | –
Cc1cc([N+](=O)[O-])cc([N+](=O)[O-])c1O | – | active: 74.8 µM
O=C1C2CC=CCC2C(=O)N1SC(Cl)(Cl)C(Cl)Cl (stereo unspecified) | inactive | –

read-out: adenosine kinase (ADK) gene, ADK (gene 132); assay: LTEA_HepaRG_ADK: Life Technologies and Expression Analysis (LTEA) Assay for adenosine kinase (ADK) gene using HepaRG (AID 2283471); details: actives raise or lower the signal; mRNA level, 48 h
How it was run: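 Following 48 h exposure of HepaRG cells in 0.5% DMSO (top concentration 100 uM, duplicate wells), ADK mRNA induction or suppression was measured by qRT-PCR, normalised to ACTB/GAPDH/POLR2A, and fitted bidirectionally relative to vehicle.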

Compound | outcome
CN(C(=O)Cc1cccc2occc12)[C@H]1CC[C@@]2(CCCO2)C[C@@H]1N1CCCC1 | inactive
CC(C)OP(=S)(OC(C)C)SCCNS(=O)(=O)c1ccccc1 | inactive
O=C1C2CC=CCC2C(=O)N1SC(Cl)(Cl)C(Cl)Cl (stereo unspecified) | inactive

read-out: Alpha-fetoprotein (AFP) gene, AFP (gene 174); assay: LTEA_HepaRG_AFP: Life Technologies and Expression Analysis (LTEA) Assay for Alpha-fetoprotein (AFP) gene using HepaRG (AID 2283472); details: actives raise or lower the signal; mRNA level, 48 h
How it was run: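 Human HepaRG cells plated 48 h, then switched to serum-free induction medium and exposed in duplicate for 48 h to 8-point half-log series from 100 uM in 0.5% DMSO. AFP mRNA by qRT-PCR, normalized to ACTB, GAPDH, POLR2A; bidirectional fit versus DMSO.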

Compound | outcome | AC50
CN(C(=O)Cc1cccc2occc12)[C@H]1CC[C@@]2(CCCO2)C[C@@H]1N1CCCC1 | inactive | –
CC(C)OP(=S)(OC(C)C)SCCNS(=O)(=O)c1ccccc1 | – | active: 9.96 µM
Cc1cc([N+](=O)[O-])cc([N+](=O)[O-])c1O | – | active: 8.08 µM
O=C1C2CC=CCC2C(=O)N1SC(Cl)(Cl)C(Cl)Cl (stereo unspecified) | inactive | –

read-out: BCL2L11 (gene 10018); assay: LTEA_HepaRG_BCL2L11: Life Technologies and Expression Analysis (LTEA) Assay for Bcl-2 (BCL2L11) gene using HepaRG (AID 2283473); details: actives raise or lower the signal; mRNA level, 48 h
How it was run: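 Differentiated human HepaRG cells were exposed 48 h in serum-free induction medium to eight half-log concentrations up to 100 uM in 0.5% DMSO, in duplicate. BCL2L11 mRNA was quantified by TaqMan qRT-PCR, normalized to ACTB, GAPDH and POLR2A; induction or repression fitted versus DMSO.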

Compound | outcome | AC50
CN(C(=O)Cc1cccc2occc12)[C@H]1CC[C@@]2(CCCO2)C[C@@H]1N1CCCC1 | inactive | –
CC(C)OP(=S)(OC(C)C)SCCNS(=O)(=O)c1ccccc1 | inactive | –
O=C1C2CC=CCC2C(=O)N1SC(Cl)(Cl)C(Cl)Cl (stereo unspecified) | – | active: 50 µM

read-out: Apolipoprotein A-V (APOA5) gene, APOA5 (gene 116519); assay: LTEA_HepaRG_APOA5: Life Technologies and Expression Analysis (LTEA) Assay for Apolipoprotein A-V (APOA5) gene using HepaRG (AID 2283474); details: actives raise or lower the signal; mRNA level, 48 h
How it was run: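 Differentiated HepaRG cells in serum-free induction medium, exposed 48 h in duplicate to eight half-log concentrations topping at 100 uM (0.5% DMSO). APOA5 mRNA by Fluidigm TaqMan qRT-PCR, normalized to ACTB, GAPDH and POLR2A; bidirectional fit versus DMSO.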

Compound | outcome | AC50
CN(C(=O)Cc1cccc2occc12)[C@H]1CC[C@@]2(CCCO2)C[C@@H]1N1CCCC1 | inactive | –
Cc1cc([N+](=O)[O-])cc([N+](=O)[O-])c1O | – | active: 9.15 µM
O=C1C2CC=CCC2C(=O)N1SC(Cl)(Cl)C(Cl)Cl (stereo unspecified) | – | active: 9.92 µM

read-out: Apoptosis regulator Bcl-2 (Homo sapiens) (UniProt P10415); assay: LTEA_HepaRG_BCL2: Life Technologies and Expression Analysis (LTEA) Assay for Bcl-2 gene using HepaRG (AID 2283475); details: actives raise or lower the signal; mRNA level, 48 h
How it was run: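 Differentiated HepaRG cells in serum-free induction medium were exposed for 48 h to eight half-log concentrations up to 100 uM in 0.5% DMSO, in duplicate. BCL2 mRNA was quantified by TaqMan qRT-PCR normalised to ACTB, GAPDH and POLR2A, with bidirectional fitting versus DMSO.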

Compound | outcome | AC50
CN(C(=O)Cc1cccc2occc12)[C@H]1CC[C@@]2(CCCO2)C[C@@H]1N1CCCC1 | inactive | –
CC(C)OP(=S)(OC(C)C)SCCNS(=O)(=O)c1ccccc1 | inactive | –
Cc1cc([N+](=O)[O-])cc([N+](=O)[O-])c1O | – | active: 88 µM
O=C1C2CC=CCC2C(=O)N1SC(Cl)(Cl)C(Cl)Cl (stereo unspecified) | inactive | –

read-out: Bcl-2 (BID) gene, BID (gene 637); assay: LTEA_HepaRG_BID: Life Technologies and Expression Analysis (LTEA) Assay for Bcl-2 (BID) gene using HepaRG (AID 2283476); details: actives raise or lower the signal; mRNA level, 48 h
How it was run: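 Differentiated HepaRG cells in serum-free induction medium were exposed in duplicate for 48 h to eight half-log concentrations up to 100 uM in 0.5% DMSO. BID mRNA was quantified by qRT-PCR, normalized to ACTB, GAPDH and POLR2A.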

Compound | outcome
CN(C(=O)Cc1cccc2occc12)[C@H]1CC[C@@]2(CCCO2)C[C@@H]1N1CCCC1 | inactive
CC(C)OP(=S)(OC(C)C)SCCNS(=O)(=O)c1ccccc1 | inactive
Cc1cc([N+](=O)[O-])cc([N+](=O)[O-])c1O | inactive
O=C1C2CC=CCC2C(=O)N1SC(Cl)(Cl)C(Cl)Cl (stereo unspecified) | inactive

read-out: Caspase-3 (Homo sapiens) (UniProt P42574); assay: LTEA_HepaRG_CASP3: Life Technologies and Expression Analysis (LTEA) Assay for cysteine-aspartic acid protease (CASP3) using HepaRG (AID 2283477); details: actives raise or lower the signal; mRNA level, 48 h
How it was run: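 Differentiated HepaRG cells, plated 48 h, were treated in duplicate in serum-free induction medium for 48 h with eight half-log concentrations up to 100 uM in 0.5% DMSO. CASP3 mRNA measured by qRT-PCR, normalized to ACTB, GAPDH, POLR2A.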

Compound | outcome
CN(C(=O)Cc1cccc2occc12)[C@H]1CC[C@@]2(CCCO2)C[C@@H]1N1CCCC1 | inactive
CC(C)OP(=S)(OC(C)C)SCCNS(=O)(=O)c1ccccc1 | inactive
O=C1C2CC=CCC2C(=O)N1SC(Cl)(Cl)C(Cl)Cl (stereo unspecified) | inactive

read-out: Cytochrome P450 (CYP24A1), CYP24A1 (gene 1591); assay: LTEA_HepaRG_CYP24A1: Life Technologies and Expression Analysis (LTEA) Assay for Cytochrome P450 (CYP24A1) using HepaRG (AID 2283478); details: actives raise or lower the signal; mRNA level, 48 h
How it was run: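 HepaRG cells plated 48 h, then exposed in duplicate in serum-free induction medium for 48 h to 8-point half-log series from 100 uM in 0.5% DMSO. CYP24A1 mRNA by Fluidigm qRT-PCR, normalized to ACTB, GAPDH, POLR2A; bidirectional fit versus DMSO.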

Compound | outcome
CN(C(=O)Cc1cccc2occc12)[C@H]1CC[C@@]2(CCCO2)C[C@@H]1N1CCCC1 | inactive
CC(C)OP(=S)(OC(C)C)SCCNS(=O)(=O)c1ccccc1 | inactive
Cc1cc([N+](=O)[O-])cc([N+](=O)[O-])c1O | inactive
O=C1C2CC=CCC2C(=O)N1SC(Cl)(Cl)C(Cl)Cl (stereo unspecified) | inactive

read-out: Cytochrome P450 (CYP1A2), CYP1A2 (gene 1544); assay: LTEA_HepaRG_CYP1A2: Life Technologies and Expression Analysis (LTEA) Assay for Cytochrome P450 (CYP1A2) using HepaRG (AID 2283479); details: actives raise or lower the signal; mRNA level, 48 h
How it was run: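 Differentiated human HepaRG cells in serum-free induction medium exposed 48 hours in duplicate to 8 half-log concentrations from 100 uM, 0.5% DMSO. CYP1A2 mRNA quantified by qRT-PCR, normalized to ACTB, GAPDH and POLR2A; bidirectional fitting versus DMSO.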

Compound | AC50 | outcome
CN(C(=O)Cc1cccc2occc12)[C@H]1CC[C@@]2(CCCO2)C[C@@H]1N1CCCC1 | active: 50 µM | –
CC(C)OP(=S)(OC(C)C)SCCNS(=O)(=O)c1ccccc1 | active: 24.2 µM | –
Cc1cc([N+](=O)[O-])cc([N+](=O)[O-])c1O | active: 7.79 µM | –
O=C1C2CC=CCC2C(=O)N1SC(Cl)(Cl)C(Cl)Cl (stereo unspecified) | – | inactive

read-out: cysteine-aspartic acid protease (CASP8), CASP8 (gene 841); assay: LTEA_HepaRG_CASP8: Life Technologies and Expression Analysis (LTEA) Assay for cysteine-aspartic acid protease (CASP8) using HepaRG (AID 2283480); details: actives raise or lower the signal; mRNA level, 48 h
How it was run: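 HepaRG, 48 h exposure, duplicate wells; 8 conc, half-log from 100 uM, 0.5% DMSO. Serum-free induction medium. CASP8 mRNA by TaqMan qRT-PCR, norm. ACTB/GAPDH/POLR2A; gain/loss fitted vs DMSO.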

Compound | outcome | AC50
CN(C(=O)Cc1cccc2occc12)[C@H]1CC[C@@]2(CCCO2)C[C@@H]1N1CCCC1 | inactive | –
CC(C)OP(=S)(OC(C)C)SCCNS(=O)(=O)c1ccccc1 | inactive | –
Cc1cc([N+](=O)[O-])cc([N+](=O)[O-])c1O | – | active: 12.5 µM
O=C1C2CC=CCC2C(=O)N1SC(Cl)(Cl)C(Cl)Cl (stereo unspecified) | inactive | –

read-out: Cytochrome P450 (CYP2B6), CYP2B6 (gene 1555); assay: LTEA_HepaRG_CYP2B6: Life Technologies and Expression Analysis (LTEA) Assay for Cytochrome P450 (CYP2B6) using HepaRG (AID 2283481); details: actives raise or lower the signal; mRNA level, 48 h
How it was run: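 Differentiated human HepaRG cells in serum-free induction medium, dosed in duplicate for 48 h over 8 half-log concentrations topping at 100 uM (0.5% DMSO). CYP2B6 mRNA measured by TaqMan qRT-PCR, normalized to ACTB, GAPDH, POLR2A; bidirectional fit versus DMSO.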

Compound | AC50
CN(C(=O)Cc1cccc2occc12)[C@H]1CC[C@@]2(CCCO2)C[C@@H]1N1CCCC1 | active: 13.8 µM
CC(C)OP(=S)(OC(C)C)SCCNS(=O)(=O)c1ccccc1 | active: 85.3 µM
Cc1cc([N+](=O)[O-])cc([N+](=O)[O-])c1O | active: 6.83 µM
O=C1C2CC=CCC2C(=O)N1SC(Cl)(Cl)C(Cl)Cl (stereo unspecified) | active: 1.52 µM

read-out: Cytochrome P450 2C19 (Homo sapiens) (UniProt P33261); assay: LTEA_HepaRG_CYP2C19: Life Technologies and Expression Analysis (LTEA) Assay for CYP2C19 using HepaRG (AID 2283482); details: actives raise or lower the signal; mRNA level, 48 h
How it was run: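 Differentiated HepaRG cells in serum-free induction medium exposed 48 h in duplicate, 8 concentrations from 100 uM by half-log steps in 0.5% DMSO. CYP2C19 mRNA measured by TaqMan qRT-PCR, normalized to ACTB, GAPDH, POLR2A. Bidirectional fit versus DMSO.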

Compound | AC50 | outcome
CN(C(=O)Cc1cccc2occc12)[C@H]1CC[C@@]2(CCCO2)C[C@@H]1N1CCCC1 | active: 21.5 µM | –
CC(C)OP(=S)(OC(C)C)SCCNS(=O)(=O)c1ccccc1 | active: 85.2 µM | –
O=C1C2CC=CCC2C(=O)N1SC(Cl)(Cl)C(Cl)Cl (stereo unspecified) | – | inactive

read-out: CYP2C8 (gene 1558); assay: LTEA_HepaRG_CYP2C8: Life Technologies and Expression Analysis (LTEA) Assay for CYP2C8 using HepaRG (AID 2283483); details: actives raise or lower the signal; mRNA level, 48 h
How it was run: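 CYP2C8 mRNA induction or loss, by qRT-PCR normalized to ACTB/GAPDH/POLR2A, is read in HepaRG cells after 48 h treatment. Concentrations run from 100 uM down in half-log dilutions, with 0.5% DMSO as vehicle and baseline.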

Compound | outcome | AC50
CN(C(=O)Cc1cccc2occc12)[C@H]1CC[C@@]2(CCCO2)C[C@@H]1N1CCCC1 | inactive | –
CC(C)OP(=S)(OC(C)C)SCCNS(=O)(=O)c1ccccc1 | – | active: 83.7 µM
Cc1cc([N+](=O)[O-])cc([N+](=O)[O-])c1O | – | active: 10.8 µM
O=C1C2CC=CCC2C(=O)N1SC(Cl)(Cl)C(Cl)Cl (stereo unspecified) | inactive | –
